According to patent US7792665B2, “Method for designing a compound based on the three dimensional structure of phosphoinositide dependent protein kinase 1 (PDK1)” (Medical Research Council, priority 2002, dated 2010):

Biological target: PHOS.KINASE (Oryctolagus cuniculus, UniProt P00518)
Test: Kinase panel assay, phosphorylase kinase
Assay type: biochemical
Conditions: 1 μM inhibitor, 0.1 mM ATP, average of triplicate

CN[C@@H]1C[C@H]2O[C@@](C)([C@@H]1OC)n1c3ccccc3c3c4c(c5c6ccccc6n2c5c31)C(=O)NC4 [STO, staurosporine]
percentage of kinase activity compared to control incubations, PHOS.KINASE: 2 ± 3%
